Values of other authors as cited in publication PMC9781609, “PET Imaging of the Neurotensin Targeting Peptide NOTA-NT-20.3 Using Cobalt-55, Copper-64 and Gallium-68” (Pharmaceutics, 2022).

Chains of the proteins cited; added tags and fusions are not shown.
UniProt P30989, whole entry: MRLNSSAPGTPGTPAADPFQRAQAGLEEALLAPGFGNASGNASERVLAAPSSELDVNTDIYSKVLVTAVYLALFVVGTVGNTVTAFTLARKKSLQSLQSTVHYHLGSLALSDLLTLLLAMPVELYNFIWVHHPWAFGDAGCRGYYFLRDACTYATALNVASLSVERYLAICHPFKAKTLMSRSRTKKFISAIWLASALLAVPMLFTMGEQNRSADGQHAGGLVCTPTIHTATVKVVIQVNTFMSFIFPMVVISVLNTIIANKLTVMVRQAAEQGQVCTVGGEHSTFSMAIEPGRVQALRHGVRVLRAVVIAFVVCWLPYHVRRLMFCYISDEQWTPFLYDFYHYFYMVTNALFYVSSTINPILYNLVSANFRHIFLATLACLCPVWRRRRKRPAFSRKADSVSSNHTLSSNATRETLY

Assays:
[1] = target: NTSR1 (Homo sapiens, UniProt P30989); details: cited from earlier work
Procedure: (§1) Neurotensin receptor imaging has emerged as a promising target for imaging and therapy. The endogenous neurotensin peptide has a short half-life in blood (<6 min), limiting its direct radiolabeling and use. Most developments in neurotensin receptor imaging have been focused on increasing serum stability and improving specificity for NTSR1 [1]. Previously, neurotensin receptor binding peptides have been investigated as imaging and therapeutic agents when radiolabeled with technetium-99m, indium-111, gallium-68, copper-64, actinium-225, and leutetium-177 [10, 11, 12, 13]. Specif ...

[2] = cited from earlier work
Procedure: as §1

In the case of `CC(=O)N[C@@H](CCCCN)C(=O)N1CCC[C@H]1C(=O)N(C)[C@@H](CCCNC(=N)N)C(=O)N[C@@H](CCCNC(=N)N)C(=O)N1CCC[C@H]1C(=O)N[C@@H](Cc1ccc(O)cc1)C(=O)N[C@H](C(=O)N[C@@H](CC(C)C)C(=O)O)C(C)(C)C`, the IC50 [1] is given as 2.2 nM and the serum stability [2] is given as over 250 h.
